Data: patent publication US20140294763A1, “PEPTIDOMIMETIC PROTEASE INHIBITORS” (priority 2000, published 2014)

Tested on: replicon cells
Assay: XTT metabolic assay to determine replicon cell viability
Settings: concentrations employed in the Replicon Assay
Text: Inflamation Research. […] It is assumed that the level of GAPDH mRNA, which is a constitutively expressed housekeeping gene, is the same in all viable cells. […] Thus, it is postulated, as done by others using TaqMan® technology to determine the levels of particular mRNAs in human cells, that GAPDH mRNA levels are proportional to viable cell numbers (VCN) in any given sample, with the relationship of VCN=2^̂(40−CtGAPDH mRNA). The VCN is computed for each of the Replicon Assay sample wells, and then we divide the HCV Replicon RNA copy number for a specific well by the VCN for that well. Once computed, this ratio is used instead of the HCV copy number to compute inhibition (“Avg. Inh using ratio”; FIG. 14A). […] In the Replicon Assay, it is assumed that the measured inhibition of HCV RNA replicon accumulation is the sum of the actual inhibition of HCV RNA replicon accumulation and the apparent inhibition of HCV RNA replicon accumulation due to cytoxicity. […] Thus, the true anti-HCV activity of a compound in the Replicon Assay corrected for general cytotoxicity can be estimated by dividing the number of HCV replicon RNA molecules measured in each sample by the VCN, thus normalizing to the number of viable cells in each sample. […] In FIG. 14A, “Avg.

NC(=O)c1ncn([C@@H]2O[C@H](CO)[C@@H](O)[C@H]2O)n1 [Ribavirin, reference compound]
cytotoxicity (XTT metabolic assay): significant Ribavirin-induced cytotoxicity
